The record followed here is article PMC11551741 (Nucleic Acids Research, 2024).

Broadly, the Kd is the constant that tells how readily two partners part at equilibrium.

In one experiment the target is T1, SLF1^tBRCT_K56A (human, UniProt Q9BQI6 6-208, K56A).
T1 construct: SLF1, human, tandem BRCT domain, residues 6-208, K56A; not shown: His-tag, N-terminal, cleaved
T1 sequence (looked up): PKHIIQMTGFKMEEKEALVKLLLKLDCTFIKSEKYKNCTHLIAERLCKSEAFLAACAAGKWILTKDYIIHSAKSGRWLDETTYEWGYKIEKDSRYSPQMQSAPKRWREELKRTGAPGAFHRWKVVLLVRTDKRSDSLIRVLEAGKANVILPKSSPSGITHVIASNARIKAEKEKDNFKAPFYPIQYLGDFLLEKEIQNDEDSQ
The experiment is described as follows: fluorescence polarisation; 20 nM 6-FAM-RAD18(442p,444p)^peptide with rising SLF1^tBRCT or SLF1^tBRCT_K56A; 20 mM Tris pH 8.0, 150 mM NaCl, 5% glycerol; room temperature 30 mins; one-site specific binding model. Conditions: both partners purified.

Experiment [1] deals with T2, SLF1^tBRCT (tandem BRCT domain of SLF1, residues 6-208) (human, UniProt Q9BQI6 6-208).
T2 construct: SLF1 (SMC5-SMC6 complex localization factor 1), human, tandem BRCT domain, residues 6-208; pHAT4 construct; also called wild-type SLF1^tBRCT; not shown: His-tag, N-terminal, cleaved
T2 sequence (looked up): T1 sequence (looked up) with A51K
The experiment is described as above. The conditions noted are these: both partners purified.

Changes are numbered by the printed parent chain.

B1: 6-FAM-RAD18(442p,444p)^peptide (6-FAM-S(pS)S(pS)DI) (peptide)
peptide: SSSSDI
modifications: 6-FAM (6-carboxyfluorescein) on the N-terminus; phosphoserine at 442 and 444; C-terminal amidation
notes: RAD18, human, residues S441 to I446; the methods say that all RAD18 peptides are N-terminally acetylated; this one is printed with 6-FAM at the N-terminus; also called 6-FAM labelled S(pS)S(pS)DI peptide; 6-FAM-labelled RAD18 peptide; source: synthetic peptide (Biomatik)
B1: the Kd with SLF1^tBRCT_K56A was 6.63 µM; in experiment [1], about 1.06 µM.
